Measured values as given in patent publication US20250302927A1, “MODIFIED FACTOR XA POLYPEPTIDES AND METHODS OF USE” (The United States of America, as represented by the …, priority 2022, published 2025).
Blank lines part the entries; values can stand above or below the molecule they belong to.

Experiments:
[1] = Inhibition of FXa variant chromogenic substrate cleavage by apixaban (IC50); type: biochemical, human; conditions: for IC50: apixaban, fixed amounts of FXa variants, increasing apixaban concentrations
Experimental: Chromogenic FXa activity assay: The FXa activity assay based on CS11(65)a chromogenic substrate (Biophen) was performed as described below. […] For each sample, substrate cleavage was calculated by taking the average rate over the time frame between 1 and 2 minutes.
Activity and inhibitory concentration were determined for a larger series of variants (FIGS. 2A and 2B). Activities for all variants were determined using the rate of chromogenic substrate cleavage in pure buffer system at different FXa concentrations. Variants were assigned into five brackets (FIG. 2A). […] Taking a balance between activity and IC50 values (Table 2), six potentially beneficial variants were identified. To be assigned as potentially beneficial the combined scores were ***** but the individual score could not be less than **.

[2] = system: tissue factor (TF)-triggered pooled normal human plasma; experiment: Thrombin generation assay in plasma spiked with apixaban; type: biochemical; conditions: for Km: activity in the presence of a fixed amount (1 μM) of apixaban, read-out: apparent Km
Experimental: Thrombin generation assay: The procoagulant activity of FXa variants was evaluated by a previously described thrombin generation assay in tissue factor (TF)-triggered pooled normal human plasma (Affinity Biologicals Inc, Ontario, Canada). […] Fluorescence (product of thrombin substrate consumption) was recorded in a kinetic mode at 37° C. using a Tecan Infinite F500 every 45 seconds for a period of 1.7 hours. In-house software was used to calculate calibrate thrombin generation assay (using an internal thrombin calibrator CAT® from Stago, Parsippany, NJ, USA) and calculate thrombin peak height parameter.

Male CD-1 mice = experiment: Tail clip bleeding model; type: in vivo; conditions: for Bleeding profile (bleeding graphs): apixaban 4 mg/kg, FIG. 4D
Experimental: Tail clip bleeding model: Animal experiments were performed at the U.S. FDA/CBER Division of Veterinary Services in accordance with the protocol approved by the institutional animal care and use committee (IACUC). Male CD-1 mice (Charles River Laboratories, Kingston, NY, USA) were 5-8 weeks old weighing 28-34 grams. […] After 5 minutes, 3 mm of tail were cut, after which the tail was immersed in a tube with predefined volume of 0.9% NaCl at 37° C. and allowed to bleed for 30 minutes under close observation. Blood loss was determined by measuring hemoglobin content and expressed as μl/mouse.
The design of the in vivo study in mice is depicted in FIG. 3B. […] The tails of the mice were clipped, and bleeding monitored by measuring bleeding time (FIG. 3C) and blood loss (FIG. 3D). […] All bleeding episodes were plotted using the length and number of episodes of bleeds for each individual mouse (FIG. 3E) to determine the bleeding profiles.
Additional experiments were performed in the mouse model, as above, but with the inclusion of andexanet alfa for comparison. The experimental strategy is depicted in FIG. 4A.

[3] = biological target: T1, Tissue factor pathway inhibitor (TFPI) (Homo sapiens, UniProt P10646); experiment: ACTICHROME TFPI assay; type: biochemical; conditions: 4 nM variants vs 100 nM andexanet alfa, FIG. 5
T1 construct: BioMedica Diagnostics (assay kit)
T1 sequence (P10646 29-304): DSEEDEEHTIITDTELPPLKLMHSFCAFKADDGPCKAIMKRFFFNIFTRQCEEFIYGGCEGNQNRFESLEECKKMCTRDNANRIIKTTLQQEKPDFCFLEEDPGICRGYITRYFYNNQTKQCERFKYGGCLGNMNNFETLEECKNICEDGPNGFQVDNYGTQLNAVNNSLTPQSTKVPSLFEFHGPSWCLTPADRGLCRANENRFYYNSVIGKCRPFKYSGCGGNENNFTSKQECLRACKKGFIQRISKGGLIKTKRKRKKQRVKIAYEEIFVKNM
Experimental: Tissue factor pathway inhibitor (TFPI) plays a very important role in regulation of the procoagulant activity of tissue factor (TF). […] TFPI activity was determined using ACTICHROME® TFPI assay (BioMedica Diagnostics) according to manufacturer's protocol. […] Thus, these agents are believed to have minimal risk of thrombogenesis.

[4] = 1 mg/kg infused 5 min after apixaban, FIG. 3C
[5] = apixaban dose of 4 mg/kg, FIG. 4B
[6] = apixaban dose of 4 mg/kg, FIG. 4C

IC50 [1]: < 5 nM
Molecule: Variant 66: modified Factor Xa polypeptide, substitution C415A

IC50 [1]: 51 to 150 nM
Molecule: Variant 63: modified Factor Xa polypeptide, G450A, S1 subsite, SEQ ID NO: 6

IC50 [1]: 151 to 250 nM
Molecule: Variant 68: modified Factor Xa polypeptide, C415A + C443A, S1 subsite, SEQ ID NO: 10

Molecule: wild type FXa: wild type (unmodified) Factor Xa, amino acids 41-488 of SEQ ID NO: 1 [reference compound]
Km [2]: 0.0031 ± 0.0004 µM
Bleeding time (Male CD-1 mice; [4]): did not significantly reduce the bleeding time
Bleeding profile (bleeding graphs) (Male CD-1 mice): mostly uninterrupted flow of blood
Bleeding time (Male CD-1 mice; [5]): no significant effect
Blood loss (Male CD-1 mice; [6]): no significant effect

Molecule: FX: vitamin K-dependent coagulation factor X of the blood coagulation cascade [reference compound]
Bleeding time (Male CD-1 mice; [4]): did not significantly reduce the bleeding time

fold higher IC50 values for apixaban compared to the wild-type FXa ([1]; FIG. 1G): ~70 fold
IC50 [1]: 151 to 250 nM
B1: FXa variant 70 (amino acids 312-317 replaced with STYVPG) (protein)
chain: GPANSFLEEMKKGHLERECMEETCSYEEAREVFEDSDKTNEFWNKYKDGDQCETSPCQNQGKCKDGLGEYTCTCLEGFEGKNCELFTRKLCSLDNGDCDQFCHEEQNSVVCSCARGYTLADNGKACIPTGPYPCGKQTLERRKRSVAQATSSSGEAPDSITWKPYDAADLDPTENPFDLLDFNQTQPERGDNNLTRIVGGQECKDGECPWQALLINEENEGFCGGTILSEFYILTAAHCLYQAKRFKVRVGDRNTEQEEGGEAVHEVEVVIKHSTYVPGTYDFDIAVLRLKTPITFRMNVAPACLPERDWAESTLMTQKTGIVSGFGRTHEKGRQSTRLKMLEVPYVDRNSCKLSSSFIITQNMFCAGYDTKQEDACQGDSGGPHVTRFKDTYFVTGIVSWGEGCARKGKYGIYTKVTAFLKWIDRSMKTRGLPKAKSHAPEVITSSPLK
Km [2]: 0.219 ± 0.014 µM
potency compared with wild type FXa ([2]; thrombin generation assay as worded): less potent than wild type FXa
Bleeding time (Male CD-1 mice; [4]): significantly reduced bleeding time
Blood loss (Male CD-1 mice; 1 mg/kg infused 5 min after apixaban, FIG. 3D): successfully reversed the anticoagulant effect of apixaban
Bleeding profile (bleeding graphs) (Male CD-1 mice): multiple breaks in blood flowing from the tail cut
Bleeding time (Male CD-1 mice; [5]): significant decrease
Blood loss (Male CD-1 mice; [6]): significant decrease
response to TFPI (TFPI activity) [3]: much smaller response to TPFI compared to andexanet alfa

IC50 [1]: 5 to 50 nM
B2: Variant 69: modified Factor Xa polypeptide, amino acids 312-317 replaced with KNYQPD, S4 subsite, SEQ ID NO: 12 (protein)
chain: GPANSFLEEMKKGHLERECMEETCSYEEAREVFEDSDKTNEFWNKYKDGDQCETSPCQNQGKCKDGLGEYTCTCLEGFEGKNCELFTRKLCSLDNGDCDQFCHEEQNSVVCSCARGYTLADNGKACIPTGPYPCGKQTLERRKRSVAQATSSSGEAPDSITWKPYDAADLDPTENPFDLLDFNQTQPERGDNNLTRIVGGQECKDGECPWQALLINEENEGFCGGTILSEFYILTAAHCLYQAKRFKVRVGDRNTEQEEGGEAVHEVEVVIKHKNYQPDTYDFDIAVLRLKTPITFRMNVAPACLPERDWAESTLMTQKTGIVSGFGRTHEKGRQSTRLKMLEVPYVDRNSCKLSSSFIITQNMFCAGYDTKQEDACQGDSGGPHVTRFKDTYFVTGIVSWGEGCARKGKYGIYTKVTAFLKWIDRSMKTRGLPKAKSHAPEVITSSPLK
